Literature values as cited in patent publication US10149644B2, “Curcumin derivatives for amyloid-β plaque imaging” (The General Hospital Corporation, priority 2008, dated 2018).

By UniProt entry, the sequences of proteins in these tests, tags left out. Residues count along the entry.
UniProt P05067, 672-711 limits assumed: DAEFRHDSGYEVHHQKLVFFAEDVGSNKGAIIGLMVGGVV

Biological target: T1, Aβ40 aggregates (Homo sapiens, UniProt P05067)
T1 construct: Synthetic amyloid-b protein (1-40) was purchased from rPeptide; purchased rPeptide (Bogart, Ga.)
Settings: reported values used for comparison; read-out: Kd towards Aβ aggregates (literature); cited from earlier work

Cc1ccc2c(c1)sc(-c1ccc(N(C)C)cc1)[n+]2C.[Cl-] [Thioflavin T]
Kd: 580 nM
